The target in one test is T1, CRF2R (Homo sapiens, UniProt Q13324).
T1 sequence (Q13324 1-411): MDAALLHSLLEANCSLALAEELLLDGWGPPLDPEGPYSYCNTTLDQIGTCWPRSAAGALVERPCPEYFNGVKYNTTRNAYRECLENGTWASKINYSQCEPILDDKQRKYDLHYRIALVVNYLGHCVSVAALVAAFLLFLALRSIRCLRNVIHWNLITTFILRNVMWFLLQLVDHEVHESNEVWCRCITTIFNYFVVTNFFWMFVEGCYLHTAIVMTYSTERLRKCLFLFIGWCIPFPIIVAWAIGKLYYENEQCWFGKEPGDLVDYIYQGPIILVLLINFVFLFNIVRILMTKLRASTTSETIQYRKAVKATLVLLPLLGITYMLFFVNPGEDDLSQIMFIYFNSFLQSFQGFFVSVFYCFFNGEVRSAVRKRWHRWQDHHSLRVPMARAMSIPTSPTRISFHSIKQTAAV
The test can be described thus: CRF2R agonist activation (EC50 / Emax), called comparative CRF binding. In kind it is cell-based. The settings on record: for Emax: read-out: CRF2R Emax. A digest of the protocol: (§1)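 Agonism is scored from cAMP rise, assayed in lysates or through CRE-driven reporter expression, after peptide contact with cells bearing human CRF2R or CRF1R, compared against vehicle-treated cells.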

The next test deals with T2, CRF1R (Homo sapiens, UniProt P34998).
T2 sequence (P34998 24-415): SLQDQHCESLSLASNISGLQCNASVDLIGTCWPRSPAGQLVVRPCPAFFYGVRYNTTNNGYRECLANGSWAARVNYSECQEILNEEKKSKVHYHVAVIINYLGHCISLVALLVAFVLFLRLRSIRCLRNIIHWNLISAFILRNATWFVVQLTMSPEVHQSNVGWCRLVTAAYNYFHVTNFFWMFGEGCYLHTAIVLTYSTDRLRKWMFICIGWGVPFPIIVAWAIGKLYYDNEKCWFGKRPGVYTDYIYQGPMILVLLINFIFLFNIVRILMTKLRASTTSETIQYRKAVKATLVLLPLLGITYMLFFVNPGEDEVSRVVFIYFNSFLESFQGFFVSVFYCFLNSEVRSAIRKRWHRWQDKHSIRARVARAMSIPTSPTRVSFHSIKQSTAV
The test can be described thus: CRF1R agonist activation (EC50 / Emax), called comparative CRF binding. In kind it is cell-based. To be noted: for EC50: CRF1R EC50; for Emax: read-out: CRF1R Emax. In outline:
as §1

For the molecule `CC[C@H](C)[C@H](NC(=O)[C@@H](NC(=O)[C@H](CC(=O)O)NC(=O)[C@H](CC(C)C)NC(=O)[C@H](CC(C)C)NC(=O)[C@H](CC(C)C)NC(=O)[C@H](CCCNC(=N)N)NC(=O)[C@H](CC(N)=O)NC(=O)[C@H](CC(N)=O)NC(=O)[C@H](C)NC(=O)[C@H](C)NC(=O)[C@H](CCC(N)=O)NC(=O)[C@H](CCC(N)=O)NC(=O)[C@H](CCCCN)NC(=O)[C@H](CCC(=O)O)NC(=O)[C@H](CCCCN)NC(=O)[C@H](CCC(=O)O)NC(=O)[C@H](CCC(N)=O)NC(=O)[C@H](CCCCN)NC(=O)[C@H](CCC(=O)O)NC(=O)[C@@H](NC(=O)[C@H](CCC(=O)O)NC(=O)[C@@H](NC(=O)[C@H](CC(C)C)NC(=O)[C@@H](NC(=O)[C@H](CCCNC(=N)N)NC(=O)[C@H](CC(C)C)NC(=O)[C@H](CC(C)C)NC(=O)[C@H](Cc1ccc(O)cc1)NC(=O)[C@@H](NC(=O)[C@@H]1CCCN1C(=O)[C@H](CC(C)C)NC(=O)[C@H](CC(=O)O)NC(=O)[C@@H](NC(=O)[C@H](CO)NC(=O)[C@@H](NC(=O)[C@@H]1CCCN1C(=O)[C@@H]1CCCN1C(=O)CNC(=O)[C@@H]1CCC(=O)N1)[C@@H](C)CC)[C@@H](C)CC)[C@@H](C)O)[C@@H](C)CC)[C@@H](C)CC)[C@@H](C)CC)[C@@H](C)O)C(N)=O` [compound 252], on CRF2R, the midpoint of the response, the EC50, lay at 22.3 nM and the Emax (in general, the size of the effect at its maximum, as opposed to the concentration needed) was determined as 100%. In addition, at CRF1R, a half-maximal response (EC50) required 226 nM and the Emax was determined as 100%.

For `CC[C@H](C)[C@H](NC(=O)[C@@H](NC(=O)[C@H](CC(=O)O)NC(=O)[C@H](CC(C)C)NC(=O)[C@H](CC(C)C)NC(=O)[C@H](CC(C)C)NC(=O)[C@H](CCCNC(=N)N)NC(=O)[C@H](CC(N)=O)NC(=O)[C@H](CC(N)=O)NC(=O)[C@H](C)NC(=O)[C@H](C)NC(=O)[C@H](CCC(N)=O)NC(=O)[C@H](CCC(N)=O)NC(=O)[C@H](CCCCN)NC(=O)[C@H](CCC(=O)O)NC(=O)[C@H](CCCCN)NC(=O)[C@H](CCC(=O)O)NC(=O)[C@H](CCC(N)=O)NC(=O)[C@H](CCCCN)NC(=O)[C@H](CCC(=O)O)NC(=O)[C@@H](NC(=O)[C@H](CCC(=O)O)NC(=O)[C@@H](NC(=O)[C@H](CCSC)NC(=O)[C@H](CCCCN)NC(=O)[C@H](CCCNC(=N)N)NC(=O)[C@H](CC(C)C)NC(=O)[C@H](CC(C)C)NC(=O)[C@H](Cc1ccccc1)NC(=O)[C@H](Cc1ccccc1)NC(=O)[C@@H]1CCCN1C(=O)[C@H](CC(C)C)NC(=O)[C@H](CC(=O)O)NC(=O)[C@@H](NC(=O)[C@H](CO)NC(=O)[C@@H](NC(=O)[C@@H]1CCCN1C(=O)[C@@H]1CCCN1C(=O)CNC(=O)[C@@H]1CCC(=O)N1)[C@@H](C)CC)[C@@H](C)CC)[C@@H](C)CC)[C@@H](C)CC)[C@@H](C)O)C(N)=O` [compound 223], at CRF2R, the concentration giving a half-maximal response (EC50) (commonly the concentration at which the effect is half-maximal) came out at 3 nM and the Emax came out at 92%. At CRF1R, the EC50 was 48.1 nM and the Emax came to 81%.

Take `CC[C@H](C)[C@H](NC(=O)[C@@H](NC(=O)[C@H](C)NC(=O)[C@H](CC(C)C)NC(=O)[C@H](CC(C)C)NC(=O)[C@H](CC(C)C)NC(=O)[C@H](C)NC(=O)[C@H](CC(N)=O)NC(=O)[C@H](CC(N)=O)NC(=O)[C@H](C)NC(=O)[C@H](C)NC(=O)[C@H](CCC(N)=O)NC(=O)[C@H](CCC(N)=O)NC(=O)[C@H](CCCCN)NC(=O)[C@H](CCC(=O)O)NC(=O)[C@H](CCCCN)NC(=O)[C@H](CCC(=O)O)NC(=O)[C@H](CCC(N)=O)NC(=O)[C@H](CCCCN)NC(=O)[C@H](CCC(=O)O)NC(=O)[C@@H](NC(=O)[C@H](CCC(=O)O)NC(=O)[C@@H](NC(=O)[C@@H](NC(=O)[C@H](CCC(=O)O)NC(=O)[C@H](CCCNC(=N)N)NC(=O)[C@H](CC(C)C)NC(=O)[C@H](CC(C)C)NC(=O)[C@H](CCC(N)=O)NC(=O)[C@H](Cc1ccccc1)NC(=O)[C@@H]1CCCN1C(=O)[C@H](CC(C)C)NC(=O)[C@H](CC(=O)O)NC(=O)[C@@H](NC(=O)[C@H](CO)NC(=O)[C@@H](NC(=O)[C@@H]1CCCN1C(=O)[C@@H]1CCCN1C(=O)CNC(=O)[C@@H]1CCC(=O)N1)[C@@H](C)CC)[C@@H](C)CC)C(C)C)[C@@H](C)CC)[C@@H](C)CC)[C@@H](C)O)C(N)=O` [compound 359]: the Emax on CRF2R and at CRF1R was 100% throughout.

For `CC[C@H](C)[C@H](NC(=O)[C@@H](NC(=O)[C@H](CC(=O)O)NC(=O)[C@H](CC(C)C)NC(=O)[C@H](CC(C)C)NC(=O)[C@H](CC(C)C)NC(=O)[C@H](CCCNC(=N)N)NC(=O)[C@H](CC(N)=O)NC(=O)[C@H](CC(N)=O)NC(=O)[C@H](C)NC(=O)[C@H](C)NC(=O)[C@H](CCC(N)=O)NC(=O)[C@H](CCC(N)=O)NC(=O)[C@H](CCCCN)NC(=O)[C@H](CCC(=O)O)NC(=O)[C@H](CCCCN)NC(=O)[C@H](CCC(=O)O)NC(=O)[C@H](CCC(N)=O)NC(=O)[C@H](CCCCN)NC(=O)[C@H](CCC(=O)O)NC(=O)[C@@H](NC(=O)[C@H](CCC(=O)O)NC(=O)[C@@H](NC(=O)[C@H](CCSC)NC(=O)[C@H](CCCCN)NC(=O)[C@H](CCCNC(=N)N)NC(=O)[C@H](CC(C)C)NC(=O)[C@H](CC(C)C)NC(=O)[C@H](CCC(N)=O)NC(=O)[C@H](Cc1c[nH]c2ccccc12)NC(=O)[C@@H]1CCCN1C(=O)[C@H](CC(C)C)NC(=O)[C@H](CC(=O)O)NC(=O)[C@@H](NC(=O)[C@H](CO)NC(=O)[C@@H](NC(=O)[C@@H]1CCCN1C(=O)[C@@H]1CCCN1C(=O)CNC(=O)[C@@H]1CCC(=O)N1)[C@@H](C)CC)[C@@H](C)CC)[C@@H](C)CC)[C@@H](C)CC)[C@@H](C)O)C(N)=O` [compound 210], on CRF2R, the EC50 is 10.2 nM and the Emax was determined as 97%. For the same molecule, on CRF1R, the EC50 was 43.5 nM and the Emax was determined as 90%.

Consider `CC[C@H](C)[C@H](NC(=O)[C@@H](NC(=O)[C@H](CC(=O)O)NC(=O)[C@H](CC(C)C)NC(=O)[C@H](CC(C)C)NC(=O)[C@H](CC(C)C)NC(=O)[C@H](C)NC(=O)[C@H](CC(N)=O)NC(=O)[C@H](CC(N)=O)NC(=O)[C@H](C)NC(=O)[C@H](C)NC(=O)[C@H](CCC(N)=O)NC(=O)[C@H](CCC(N)=O)NC(=O)[C@H](CCCCN)NC(=O)[C@H](CCC(=O)O)NC(=O)[C@H](CCCCN)NC(=O)[C@H](CCC(=O)O)NC(=O)[C@H](CCC(N)=O)NC(=O)[C@H](CCCCN)NC(=O)[C@H](CCC(=O)O)NC(=O)[C@@H](NC(=O)[C@H](CCC(=O)O)NC(=O)[C@@H](NC(=O)[C@H](CCSC)NC(=O)[C@H](CCCCN)NC(=O)[C@H](CCCNC(=N)N)NC(=O)[C@H](CC(C)C)NC(=O)[C@H](CC(C)C)NC(=O)[C@H](Cc1ccc(O)cc1)NC(=O)[C@H](Cc1ccccc1)NC(=O)[C@@H]1CCCN1C(=O)[C@H](CC(C)C)NC(=O)[C@H](CC(=O)O)NC(=O)[C@@H](NC(=O)[C@H](CO)NC(=O)[C@@H](NC(=O)[C@@H]1CCCN1C(=O)[C@@H]1CCCN1C(=O)CNC(=O)[C@@H]1CCC(=O)N1)[C@@H](C)CC)[C@@H](C)CC)[C@@H](C)CC)[C@@H](C)CC)[C@@H](C)O)C(N)=O` [compound 230], for which the Emax on CRF2R and on CRF1R was 100% each time.

In the case of `CC[C@H](C)[C@H](NC(=O)[C@H](CCCNC(=N)N)NC(=O)[C@H](C)NC(=O)[C@H](CC(N)=O)NC(=O)[C@@H](NC(=O)[C@@H](NC(=O)[C@H](C)NC(=O)[C@H](CCC(N)=O)NC(=O)[C@H](CCC(N)=O)NC(=O)[C@H](CCCCN)NC(=O)[C@H](CCC(=O)O)NC(=O)[C@H](CCCCN)NC(=O)[C@H](CCC(=O)O)NC(=O)[C@H](CCC(N)=O)NC(=O)[C@H](CCCCN)NC(=O)[C@H](CCC(=O)O)NC(=O)[C@@H](NC(=O)[C@H](CCC(=O)O)NC(=O)[C@@H](NC(=O)[C@H](CCSC)NC(=O)[C@H](CCCCN)NC(=O)[C@H](CCCNC(=N)N)NC(=O)[C@H](CC(C)C)NC(=O)[C@H](CC(C)C)NC(=O)[C@H](CCC(N)=O)NC(=O)[C@H](CC(C)C)NC(=O)[C@@H]1CCCN1C(=O)[C@H](CC(C)C)NC(=O)[C@H](CC(=O)O)NC(=O)[C@@H](NC(=O)[C@H](CO)NC(=O)[C@@H](NC(=O)[C@@H]1CCCN1C(=O)[C@@H]1CCCN1C(=O)CNC(=O)[C@@H]1CCC(=O)N1)[C@@H](C)CC)[C@@H](C)CC)[C@@H](C)CC)[C@@H](C)CC)[C@@H](C)O)[C@@H](C)O)C(=O)N[C@@H](CC(C)C)C(=O)N[C@@H](C)C(=O)N[C@@H](CCCNC(=N)N)C(=O)N[C@H](C(N)=O)C(C)C` [compound 144], the EC50 on CRF2R was 9.16 nM; on CRF1R, 567 nM. The Emax amounted to 85.5% at CRF2R and 100% at CRF1R.

The values are drawn from patent US6936585B2, “Corticotropin releasing factor 2 receptor agonists” (priority 2002, dated 2005).
